Results reported in patent US12433510B2, “Methods and systems for improved collection of interstitial fluid” (Georgia Tech Research Corporation, priority 2017, dated 2025).

Assay: clinical
Conditions: human, in vivo

Cn1c(=O)c2c(ncn2C)n(C)c1=O [caffeine]
Kp: 0.95 ± 0.52
